# Ab-14 light chain CDR variants: yeast mating affinities

Antigen: PDVDLGDISGINAS, a 14-residue peptide of the SARS-CoV-2 spike HR2 region.

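The starting antibody came from a phage panning campaign against this peptide. AAYL50 was designed without a model: most single CDR substitutions and a random sample of double and triple ones. In AlphaSeq, yeast of one mating type display the scFv and yeast of the other type display the target. Pairs that bind mate more often; barcode pairs of the diploids are counted by sequencing. A regression on co-assayed BCL2-family reference pairs converts the normalised counts of each replicate to an apparent Kd. Each pool was mated in three replicate cultures.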

Parent: Ab-14, a human scFv built as VH, the linker GGGGSGGGGSGGGGS, VL. Only the CDRs of the light chain vary.
VH: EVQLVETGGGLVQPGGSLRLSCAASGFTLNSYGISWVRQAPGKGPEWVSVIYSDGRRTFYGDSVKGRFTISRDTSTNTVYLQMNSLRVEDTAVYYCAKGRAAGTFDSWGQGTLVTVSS
VL: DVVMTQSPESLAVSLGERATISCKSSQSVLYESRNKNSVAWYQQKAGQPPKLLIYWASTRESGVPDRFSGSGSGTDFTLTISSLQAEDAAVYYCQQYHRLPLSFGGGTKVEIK

Positions count from residue 1 of the parent VL; K24L puts L in place of K.
This list gathers variants with a substitution at S26 (VL, numbered from residue 1).
The Kd shown is the geometric mean over detected replicates; a lower Kd is a better binder.
"nd" marks a missing value. The strain was present, yet no cells mated with the target were sequenced in any replicate, which points to weak or no binding.
In this assay the parent's reference entry averaged 4.4 nM; its copy inside this library read 48 nM.
Background: pairings of library AAYL50 with three empty control strains gave a value in 18% of cases (median 15 µM, 5th percentile 970 nM). Values in that range, when seen in few replicates, are hard to tell from nonspecific mating.

With K24L+S26M+Y31D the result was 7.0 nM (3 of 3 replicates).
With S25R+S26M+A40E the result was 190 µM (1 of 3 replicates).
With S26Y+L30R+N37S the result was 940 nM (3 of 3 replicates).
With S26F+S38T+W56Q the result was 120 nM (3 of 3 replicates).
With S26F+T59P+L102G the result was nd (0 of 3 replicates).
With S25N+S26K+Q27F the result was 12 nM (3 of 3 replicates).
With S26V+H98F+R99S the result was 6.5 nM (3 of 3 replicates).
With S26N+S103M the result was nd (0 of 3 replicates).
With S26I+Q95W+S103L the result was nd (0 of 3 replicates).
With S26A+R34G+K36E the result was 8.2 nM (3 of 3 replicates).
With S26R+K36I+L100R the result was 2.2 µM (3 of 3 replicates).
With S26A+N37S+Q96V the result was nd (0 of 3 replicates).
With S26I+N35E the result was 150 nM (3 of 3 replicates).
With S26Q+P101W the result was 6.4 µM (1 of 3 replicates).
With S26P+V39Y+E61Q the result was nd (0 of 3 replicates).
With S26D+S28N+S58A the result was 3.4 nM (3 of 3 replicates).
With S26D+E32Q+K36M the result was 220 nM (3 of 3 replicates).
With S26D+V39N+E61F the result was nd (0 of 3 replicates).
With S26I+K36I+S103R the result was 2.3 µM (2 of 3 replicates).
With S26L+S33A the result was 25 nM (3 of 3 replicates).
With K24H+S26E+Y97P the result was nd (0 of 3 replicates).
With S26T+A40C+R60D the result was nd (0 of 3 replicates).
With S26N+E32A+P101D the result was 910 nM (3 of 3 replicates).
With S26G+L30Y+S58G the result was 160 nM (3 of 3 replicates).
With S26R+S28E+Y31K the result was 80 nM (3 of 3 replicates).
With S26L+W56F+Y97E the result was nd (0 of 3 replicates).
With S26A+A40F+Q95F the result was 150 µM (1 of 3 replicates).
With S26E+K36H+L102T the result was 11 µM (2 of 3 replicates).
With S26I+S58L+S62T the result was 2.5 µM (1 of 3 replicates).
With K24E+S26N+N35A the result was 250 µM (1 of 3 replicates).
With S26D+R34D+V39A the result was 4.7 µM (1 of 3 replicates).

The last 2 entries again:

changes	Kd (apparent)	seen in
K24E+S26N+N35A	250 µM	1/3
S26D+R34D+V39A	4.7 µM	1/3

From the AlphaSeq antibody data of Engelhart et al. 2022 (doi:10.1038/s41597-022-01779-4), copy in the FLAb collection.